Source: article PMC6376317, “Fluoromethylcyclopropylamine derivatives as potential in vivo toxicophores – A cautionary disclosure” (Bioorganic & Medicinal Chemistry Letters, 2019)
Like-named read-outs stand apart in the source and are kept apart here.

Sequences of proteins named here, by UniProt entry; tags and fusion partners are left off.
UniProt Q86W56, whole entry, species assumed: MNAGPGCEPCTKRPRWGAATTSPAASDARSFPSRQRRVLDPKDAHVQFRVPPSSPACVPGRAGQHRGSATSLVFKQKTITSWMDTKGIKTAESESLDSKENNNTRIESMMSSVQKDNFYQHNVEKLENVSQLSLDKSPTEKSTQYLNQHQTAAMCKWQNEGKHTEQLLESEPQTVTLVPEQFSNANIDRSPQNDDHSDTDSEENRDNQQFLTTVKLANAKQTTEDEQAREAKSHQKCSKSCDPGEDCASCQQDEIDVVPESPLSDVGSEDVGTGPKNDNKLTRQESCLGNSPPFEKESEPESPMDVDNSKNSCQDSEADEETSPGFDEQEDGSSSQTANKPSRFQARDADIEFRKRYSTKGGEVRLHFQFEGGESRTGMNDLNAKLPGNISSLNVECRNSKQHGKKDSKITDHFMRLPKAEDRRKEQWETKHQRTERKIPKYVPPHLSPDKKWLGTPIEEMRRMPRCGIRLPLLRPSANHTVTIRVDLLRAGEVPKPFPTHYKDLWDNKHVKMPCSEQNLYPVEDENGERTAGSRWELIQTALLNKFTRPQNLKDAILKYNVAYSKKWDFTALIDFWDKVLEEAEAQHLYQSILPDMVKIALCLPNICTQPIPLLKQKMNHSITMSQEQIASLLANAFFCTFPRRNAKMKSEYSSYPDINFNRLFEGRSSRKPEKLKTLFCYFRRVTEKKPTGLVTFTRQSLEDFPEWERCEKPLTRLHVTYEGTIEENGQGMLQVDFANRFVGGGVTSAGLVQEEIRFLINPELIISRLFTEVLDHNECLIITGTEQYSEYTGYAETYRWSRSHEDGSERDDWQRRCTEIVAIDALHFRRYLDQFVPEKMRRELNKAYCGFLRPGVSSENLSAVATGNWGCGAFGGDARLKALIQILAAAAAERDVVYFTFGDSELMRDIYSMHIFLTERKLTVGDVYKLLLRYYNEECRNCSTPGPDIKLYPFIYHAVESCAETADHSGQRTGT

Columns and labels:
PARG [1] = molecular target: T1, PARG (Homo sapiens, UniProt Q86W56); type: cell-based; details: geometric mean of at least two independent determinations; read-out: PARG Cell Assay
[2] = In vivo pharmacokinetics in CD-1 mice; set-up: species or system mouse; details: oral dose 5 (mg/kg); defined as [Cmax(free)]/Cell IC50; male CD-1 mice
Protocol: Pharmacokinetics were studied in 6-8 week old male CD-1 mice following single intravenous or oral administration. Compounds were formulated as solutions comprising up to 10% DMSO with up to 10% Tween80 in saline at a concentration of approximately 1 mM. Doses were administered at 1 mg/kg (intravenous) or 5 mg/kg (oral gavage) unless otherwise stated. Blood samples were collected as dried blood spots (Agilent Bond Elut DMS cards) and assayed following solvent extraction using methanol, through a phospholipid removal plate (Phree phospholipid removal plates, Phenomenex) followed by LC-MS/MS analysis. The time-points for blood collection were as follows: oral (0.5, 1, 3, 5 and 24 h); intravenous (0.1, 0.25, 0.75, 2, 5 and 24 h). The resulting concentration-time data were analyzed by non-compartmental methods (PK Solver, Excel Add-In).

PARG [3] = molecular target: T1, PARG; type: biochemical; details: geometric mean of at least two independent determinations; read-out: PARG Enzyme Activity

SMILES: CCn1c(=O)n(Cc2cnn(C)c2)c(=O)c2cc(S(=O)(=O)NC3(C)CC3)ccc21 [Compound 9]
- IC50 (PARG [1]): 0.08 µM
- Fold exposure relative to cell IC50 [2]: 6.4
- IC50 (PARG [3]): 0.17 µM
